# Test results taken from patent publication US20180112201A1.
# Values joined by “and” are separate entries in the source; they are usually repeats but may differ in a detail not shown here. Equal entries are not always repeated. Where two headings read alike, the source gives them in different places.
# How the values were obtained:
# Experiment in all cases: cell-based or functional assay
# [1] = target: AIR DNase: plant recombinant human DNase I modified by amidation with ethylene diamine and 60 equivalents of CMC (human) (UniProt P24855)
# [2] = target: L171(1): Tris-modified DNase I (human) (UniProt P24855)
# [3] = target: L171(2): ammonia-modified DNase I (human) (UniProt P24855)
# [4] = target: L172: ethanolamine-modified DNase I (human) (UniProt P24855)
# [5] = target: Pulmozyme DNase I (dornase alfa) (human) (UniProt P24855)
# [6] = target: Y24(2): DNase I modified by amidation with ethylene diamine using 50 equivalents of EDC (human) (UniProt P24855)
# [7] = target: Y24(3): DNase I modified by amidation with ethylene diamine using 100 equivalents of EDC (human) (UniProt P24855)
# [8] = target: Y24(6): DNase I modified by amidation with hexamethylene diamine using 100 equivalents of EDC (human) (UniProt P24855)
# [9] = target: plant recombinant human DNase I (human) (UniProt P24855)
# [10] = target: plant recombinant human DNase I (human) (UniProt P24855); remark: listed apart in the source
# [11] = target: Pulmozyme DNase I (dornase alfa) (human) (UniProt P24855); remark: listed apart in the source
# [12] = target: plant recombinant human DNase I (human) (UniProt P24855); remark: listed apart in the source
substance,measurement,setting,value
human non-muscle actin (from UniProt P60709 2-375),inhibition of DNase activity at actin concentrations of about 2 µg/ml or less,[1],< 10%
same,inhibition of DNase activity at the highest actin concentration tested (50 µg/ml),[1],< 13%
same,inhibition of DNase activity at the highest actin concentration tested (50 µg/ml),[2],< 20%
same,inhibition of DNase activity at the highest actin concentration tested (50 µg/ml),[3],< 20%
same,inhibition of DNase activity at the highest actin concentration tested (50 µg/ml),[4],< 20%
same,IC50 for actin inhibition of DNase I activity (methyl green DNA hydrolysis assay),[5],0.19 µg/mL
same,"IC50 for inhibition of DNase I activity by actin (methyl green DNA hydrolysis assay, 45 ng/ml DNase I)",[5],0.23 µg/mL
same,inhibition of DNase activity at the highest actin concentration tested (100 µg/ml),[6],< 80%
same,inhibition of DNase activity at the highest actin concentration tested (100 µg/ml),[7],< 80%
same,inhibition of DNase activity at the highest actin concentration tested (100 µg/ml),[8],< 80%
same,IC50 for actin inhibition of DNase I activity (methyl green DNA hydrolysis assay),[9],0.46 µg/mL
same,IC50 for inhibition of DNase I activity by actin (methyl green DNA hydrolysis assay),[9],0.75 µg/mL and 0.777 µg/mL
same,IC50 for actin inhibition of DNase I activity (methyl green DNA hydrolysis assay),[10],0.89 µg/mL
same,IC50 for inhibition of DNase I activity by actin (methyl green DNA hydrolysis assay),[11],0.2 µg/mL
same,IC50 for inhibition of DNase I activity by actin (methyl green DNA hydrolysis assay),[12],0.47 µg/mL
